This passage reports activity results from PubChem BioAssay AID1259318 (Sanford-Burnham Center for Chemical Genomics, 2017).

Amino acid sequences for entries named in this document (tags omitted).
UniProt P20393, whole entry, looked up: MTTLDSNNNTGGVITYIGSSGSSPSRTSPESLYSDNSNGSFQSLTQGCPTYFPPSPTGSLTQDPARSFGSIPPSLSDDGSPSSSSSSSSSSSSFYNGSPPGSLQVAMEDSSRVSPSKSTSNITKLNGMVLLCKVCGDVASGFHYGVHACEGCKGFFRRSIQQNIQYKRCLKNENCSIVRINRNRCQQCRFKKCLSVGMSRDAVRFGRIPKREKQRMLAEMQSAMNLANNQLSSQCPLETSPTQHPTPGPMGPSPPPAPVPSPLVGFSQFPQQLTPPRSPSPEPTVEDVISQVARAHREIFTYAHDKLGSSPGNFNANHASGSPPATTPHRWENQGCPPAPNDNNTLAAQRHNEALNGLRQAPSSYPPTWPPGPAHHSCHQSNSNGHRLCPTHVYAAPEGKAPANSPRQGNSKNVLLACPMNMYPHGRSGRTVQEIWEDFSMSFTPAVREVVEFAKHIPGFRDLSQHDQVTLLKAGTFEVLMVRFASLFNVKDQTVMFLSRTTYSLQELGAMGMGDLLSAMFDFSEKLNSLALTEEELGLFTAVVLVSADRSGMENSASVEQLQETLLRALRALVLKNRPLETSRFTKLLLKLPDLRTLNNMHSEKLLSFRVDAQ

Structures are written as SMILES. The entries are a selection whose mix differs from that of the whole data set. Active and inactive are the calls of the source.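 The calls were made as follows: active = activity above about 14% (limit read from the data; passing the limit was not always enough); inactive = the rest.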

In this experiment the target is Nuclear receptor subfamily 1 group D member 1 (Homo sapiens) (UniProt P20393). The experiment is described as follows: modulators of Rev-erb alpha DNA binding, primary screen, biochemical, FITC-DNA, fluorescence polarization, uHTS (AID 1259318).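 Also: 0% = DMSO wells with 35 nM protein and 100% = DMSO wells with 750 nM protein.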 Particulars: Rev-erbα–FITC-DNA binding, 90 min, at 10 µM, active compounds read high.
For the compound `O=C1CCN(Cc2ccccc2)CC1`, the activity was inactive: 3.91%.
Next, `CC(C)(C)n1nnnc1C(c1ccccc1)N1CCC(n2c(=O)[nH]c3ccccc32)CC1` (centres undefined): inactive: -2.26%; `COc1ccc(NC2CCN(CCc3ccccc3)CC2)c(OC)c1`: inactive: 0.91%; `CCOC(=O)N1CCC(Nc2ccc(F)cc2)CC1`: inactive: 6.52%.
Next, `O=C(NCC1(N2CCCCC2)CCCCC1)c1ccc(F)cc1`: inactive: -5.68%; `O=P1(N(CCCl)CCCl)SCCCS1`: inactive: 5%; `CCCCn1nnnc1C(c1cc2ccccc2o1)N1CCC(n2c(=O)[nH]c3ccccc32)CC1` (centres undefined): inactive: -0.14%.
Next, `CCCCOc1ccc(C(=O)NCC2(N3CCOCC3)CCCCC2)cc1`: inactive: 1.63%; `O=C(NCC1(N2CCCCC2)CCCCC1)c1cccc(C(F)(F)F)c1`: inactive: 3.55%.
On to `CCCCn1nnnc1C(c1cccc2ccccc12)N1CCC(n2c(=O)[nH]c3ccccc32)CC1` (centres undefined), for which the activity is inactive: 6.66%.
Next, `CN1CCN(CCOC(=O)C(O)(c2ccccc2)c2ccccc2)CC1`: inactive: 1.05%; `COc1ccc(NC2CCN(C(=O)OC(C)(C)C)CC2)cc1`: inactive: 6.23%; `CC(C)c1ccc(C(=O)NCC2(N3CCOCC3)CCCCC2)cc1`: inactive: 0.85%.
Next, `COc1cc(C(=O)NCC2(N3CCCCC3)CCCCC2)ccc1OC(F)F`: inactive: -2.48%; `O=C(NCC1(N2CCOCC2)CCCCC1)c1cc(=O)[nH]c2ccccc12`: inactive: -4.25%.
Next, `O=C(NCC1(N2CCCCC2)CCCCC1)c1ccc(OC(F)F)cc1`: inactive: -0.1%; `CC(C)(C)n1nnnc1C(c1ccccc1OC(F)(F)F)N1CCC(n2c(=O)[nH]c3ccccc32)CC1` (centres undefined): inactive: -3.82%; `CSc1ccc(C(=O)NCC2(N3CCOCC3)CCCCC2)cc1`: inactive: 7.73%.
`O=C(NCC1(N2CCCCC2)CCCCC1)c1cccc([N+](=O)[O-])c1`: the activity is inactive: 4.37%.
Next, `N#CC1(Nc2ccccc2)CCN(CCc2ccccc2)CC1`: inactive: -5.45%; `O=c1[nH]c2ccccc2n1C1CCN(C(c2ccccc2OC(F)(F)F)c2nnnn2C2CCCC2)CC1` (centres undefined): inactive: 2.43%; `CCN1CCC(Nc2ccc(Cl)cc2)CC1`: inactive: -3.39%.
In the case of `O=C(NCC1(N2CCCCC2)CCCCC1)c1cncc(Br)c1`, the activity is inactive: 2.46%.
Next, `CN1CCC(Nc2cccc(F)c2)CC1`: inactive: -2.29%; `CCCOc1ccc(C(=O)NCC2(N(C)C)CCCCC2)cc1OC`: inactive: -4.33%.
Turning to `Cc1ccc(C(=O)NCC2(N(C)C)CCCCC2)o1`, the activity is inactive: 2.48%.
Next, `COc1ccc(C(c2nnnn2C2CCCC2)N2CCC(n3c(=O)[nH]c4ccccc43)CC2)cc1` (centres undefined): inactive: 10.2%; `CN(C)c1cccc(C(=O)NCC2(N3CCCCC3)CCCCC2)c1`: inactive: 1.86%; `COC(=O)C1(Nc2ccccc2)CCN(Cc2ccccc2)CC1`: inactive: -5.98%.
On to `COc1ccc(CN(CCCl)CCCl)cc1Cl`, for which the activity is inactive: -7.44%.
Next, `CC(C)c1ccc(NC2CCN(C(=O)OC(C)(C)C)CC2)cc1`: inactive: -6.22%; `CCCCn1nnnc1C(c1ccnc2ccccc12)N1CCC(n2c(=O)[nH]c3ccccc32)CC1` (centres undefined): inactive: -0.93%.
As to `CCC(c1nnnn1C(C)(C)C)N1CCC(n2c(=O)[nH]c3ccccc32)CC1` (centres undefined), the activity is inactive: -0.62%.
Next, `O=C(NCC1(N2CCOCC2)CCCCC1)c1cc(F)c(F)cc1Cl`: inactive: -3.29%; `COc1cc(OC)c(C(=O)NCC2(N(C)C)CCCCC2)cc1OC`: inactive: 1.08%; `N/C(=N\O)c1c(N)no[n+]1[O-]`: inactive: -3.76%.
Next, `COc1cccc(C(c2nnnn2C(C)(C)C)N2CCC(n3c(=O)[nH]c4ccccc43)CC2)c1OC` (centres undefined): inactive: 3.54%; `CCOC(=O)N1CCC(Nc2ccc(C)cc2)CC1`: inactive: 0.21%.
Next, `CCCCn1nnnc1C(c1cccc(OC)c1OC)N1CCC(n2c(=O)[nH]c3ccccc32)CC1` (centres undefined): inactive: 0.09%; `O=c1[nH]c2ccccc2n1C1CCN(C(c2cccs2)c2nnnn2C2CCCC2)CC1` (centres undefined): inactive: -2.77%; `O=C(OC1CN2CCC1CC2)C1c2ccccc2C=Cc2ccccc21` (centres undefined): inactive: 3.43%.
With `O=C(NCC1(N2CCOCC2)CCCCC1)c1cc(Br)ccc1Cl`, the activity is inactive: -3.36%.
For the compound `COc1cc(C(=O)NCC2(N3CCOCC3)CCCCC2)cc(OC)c1C`, the activity was inactive: -4.39%.
Next, `CCCCn1nnnc1C(c1ccccc1)N1CCC(n2c(=O)[nH]c3ccccc32)CC1` (centres undefined): inactive: -8.59%.
Next, `O=c1[nH]c2ccccc2n1C1CCN(C(c2ccnc3ccccc23)c2nnnn2C2CCCC2)CC1` (centres undefined): inactive: -6.84%.
For the compound `COc1ccc(C(=O)NCC2(N3CCOCC3)CCCCC2)cc1OC`, the activity was inactive: -0.92%.
Next, `NC(=O)C1(Nc2ccccc2)CCN(Cc2ccccc2)CC1`: inactive: -0.47%.
With `O=c1[nH]c2ccccc2n1C1CCN(C(c2cccs2)c2nnnn2C2CCCCC2)CC1` (centres undefined), the activity was inactive: -1.6%.
Next, `O=c1[nH]c2ccccc2n1C1CCN(C(c2ccccc2)c2nnnn2C2CCCC2)CC1` (centres undefined): inactive: 0.12%; `CCCN1CCC(Nc2cc(OC)cc(OC)c2)CC1`: inactive: 1.08%.
Next, `Cc1cc(N(CCCl)CCCl)ccc1C=O`: inactive: -3.63%; `c1ccc(CN2CCC(Nc3ccccc3)CC2)cc1`: inactive: -4.73%.
Next, `C/C(N)=N\P(=O)(Oc1ccccc1)Oc1ccccc1`: inactive: 5.19%; `CN(C)C1(CNC(=O)c2cccc(C#N)c2)CCCCC1`: inactive: 2.19%; `CC(C)(C)n1nnnc1C(c1cccc2ccccc12)N1CCC(n2c(=O)[nH]c3ccccc32)CC1` (centres undefined): inactive: 5.87%.
For the compound `CC(C)(C)OC(=O)N1CCC(N(C(=O)c2ccccc2)c2ccc(Cl)cc2)CC1`, the activity is inactive: -0.83%.
Next, `N#Cc1ccc(C(=O)NCC2(N3CCCCC3)CCCCC2)cc1`: inactive: 4.59%; `CC(C)(C)n1nnnc1C(c1ccnc2ccccc12)N1CCC(n2c(=O)[nH]c3ccccc32)CC1` (centres undefined): inactive: 0.35%; `COc1ccc(C(c2nnnn2C2CCCCC2)N2CCC(n3c(=O)[nH]c4ccccc43)CC2)cc1` (centres undefined): inactive: 3.97%.
Next, `CCN1CCC(Nc2cccc(F)c2)CC1`: inactive: -0.37%; `Cc1ccccc1NC1(C#N)CCN(Cc2ccccc2)CC1`: inactive: -1.78%.
Regarding `Cn1c(=O)[nH]cc(N(CCCl)CCCl)c1=O`, the activity is inactive: -1.68%.
As for `CN(C)c1ccc(C(=O)NCC2(N3CCCCC3)CCCCC2)cc1`, the activity was inactive: 0.75%.
Turning to `O=C(NCC1(N2CCCCC2)CCCCC1)c1ccco1`, the activity is inactive: -3.77%.
On to `O=c1[nH]c2ccccc2n1C1CCN(C(c2ccnc3ccccc23)c2nnnn2C2CCCCC2)CC1` (centres undefined), for which the activity was inactive: -4.48%.
Consider `COc1cc(OC)cc(C(=O)NCC2(N3CCCCC3)CCCCC2)c1`, for which the activity was inactive: 0.27%.
Next, `CCC(c1nnnn1C1CCCCC1)N1CCC(n2c(=O)[nH]c3ccccc32)CC1` (centres undefined): inactive: 0.95%; `CC(=O)N(c1ccccc1)C1CCNCC1`: inactive: -3.46%; `COc1cccc(C(c2nnnn2C2CCCCC2)N2CCC(n3c(=O)[nH]c4ccccc43)CC2)c1OC` (centres undefined): inactive: -2.85%.
Next, `Cc1ccc(NC2(C#N)CCN(Cc3ccccc3)CC2)cc1`: inactive: 4.38%; `Fc1ccccc1NC1CCN(Cc2ccccc2)CC1`: inactive: 0.74%; `Cc1ccc(C(=O)NCC2(N3CCCCC3)CCCCC2)o1`: inactive: -0.43%.
Next, `CCC(CO)(C(=O)OC1CN2CCC1CC2)c1ccccc1` (centres undefined): inactive: -2.42%; `COc1cccc(C(c2nnnn2C2CCCC2)N2CCC(n3c(=O)[nH]c4ccccc43)CC2)c1OC` (centres undefined): inactive: 1.25%; `COc1cc(OC)cc(C(=O)NCC2(N3CCOCC3)CCCCC2)c1`: inactive: 5.09%.
Take `COc1cccc(C(=O)N(c2cc(C)cc(C)c2)C2CCN(C(=O)OC(C)(C)C)CC2)c1`: the activity was inactive: 9.28%.
Next, `CN1CCC(Nc2ccc(Cl)cc2)CC1`: inactive: 0.98%.
Next, `CN1CCC(Nc2ccc(F)c(Cl)c2)CC1`: inactive: 3.29%.
Next, `CCOc1ncccc1C(=O)NCC1(N2CCOCC2)CCCCC1`: inactive: 1.85%.
For the compound `CCCOc1ccc(C(=O)NCC2(N(C)C)CCCCC2)cc1`, the activity is inactive: -3.02%.
Next, `O=c1[nH]c2ccccc2n1C1CCN(C(c2cc3ccccc3o2)c2nnnn2C2CCCC2)CC1` (centres undefined): inactive: -0.06%; `O=C(O)C1(Nc2ccccc2)CCN(Cc2ccccc2)CC1`: inactive: -1.33%; `NN(c1ccccc1)C1CCN(CCc2ccccc2)CC1`: inactive: 3.92%.
Next, `CC(C)(C)OC(=O)N1CCC(Nc2ccccc2)CC1`: inactive: 4.17%.
